Here are results for 69 compounds from PubChem BioAssay AID1665 (Sanford-Burnham Center for Chemical Genomics, 2009).

This is a selection; strong and weak results do not stand in their true shares. Activity calls are given as the source filed them.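 The calls were made as follows: active = nuclear translocation activity above 50% at 5 µM, with a well cell count of 50 or more; inconclusive = wells under 50 cells across six images, flagged as toxic; inactive = the rest.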

This test in a line: modulators of beta-catenin nuclear translocation, primary screen, imaging, HeLa cells, immunofluorescence, high-content (AID 1665).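 Also: per-cell ratio of nuclear to cytoplasmic median beta-catenin stain intensity; plate controls were DMSO negative control for no effect and GSK-3 inhibitor IX positive control for full effect.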 As to conditions: at 5 µM, hits give high values.
As to `Clc1n[nH]nc1-c1nn[nH][15n]1`, the nuclear translocation activity was inactive: 0.9%.
Under `O=[N+]([O-])c1cc([N+](=O)[O-])c(-n2nnc3ccccc32)c([N+](=O)[O-])c1` stands inactive: 4.3%; under `O=P1(Nc2ccccn2)COc2ccccc2OC1`, inactive: -6.5%; under `CCOP(=O)(Nc1ccc(C)cn1)OCC`, inactive: -1.4%.
Regarding `CCOP(=O)(Nc1cccc2ccccc12)OCC`, the nuclear translocation activity was inactive: 0.6%.
For `Nc1cccc2c([As](=O)(O)O)cccc12`, the nuclear translocation activity was inactive: -2.9%.
To `Cc1ccc(NCCc2c([N+](=O)[O-])cc([N+](=O)[O-])cc2[N+](=O)[O-])cc1` belongs inactive: 0.3%; to `CP(=O)(Nc1cccc(Br)c1)Oc1ccccc1` (centres undefined), inactive: -0.6%; to `CCCOP(=S)(Nc1nc(N)cc(=O)[nH]1)OCCC`, inactive: -1.5%.
On to `Cc1ccc(C)c(NP(C)(=O)Oc2ccccc2)c1` (centres undefined), for which the nuclear translocation activity is inactive: -0.3%.
As to `O=[As](O)(c1cccc(O)c1)c1cccc(O)c1`, the nuclear translocation activity is inactive: 0%.
With `Cc1cccc(OCC(=O)OC2CN3CCC2CC3)c1` (centres undefined), the nuclear translocation activity was inactive: -2.1%.
With `CCOC(=O)c1ccc(NP(C)(=O)Oc2cc(C)cc(C)c2)cc1` (centres undefined), the nuclear translocation activity is inactive: 1.7%.
In the case of `O=C(OC1CN2CCC1CC2)c1ccc(Cl)cc1` (centres undefined), the nuclear translocation activity is inactive: 0.4%.
Regarding `COc1ccccc1OP(C)(=O)Nc1cccc(Br)c1` (centres undefined), the nuclear translocation activity was inactive: 1.3%.
Turning to `COc1cc(C(=O)NCC2(N3CCOCC3)CCCCC2)cc(Cl)c1OC(C)C`, the nuclear translocation activity is inactive: -0.9%.
Consider `O=[As](O)(O)c1cccnc1`, for which the nuclear translocation activity is inactive: -1.4%.
For the compound `CN(C(=O)Cc1ccccc1)[C@@H]1CC[C@]2(CCCO2)C[C@H]1N1CCCC1`, the nuclear translocation activity is inactive: -2.4%.
`CCOP1(=S)c2c(C)nn(CCC#N)c2N=C(c2ccc(F)cc2)N1C` (centres undefined): the nuclear translocation activity is inactive: 1.1%.
As to `CC1=NCCc2c1[nH]c1ccccc21.O=[N+]([O-])c1cc([N+](=O)[O-])c(O)c([N+](=O)[O-])c1`, the nuclear translocation activity was inactive: 1.4%.
In the case of `O=[N+]([O-])c1ccc2c(c1)nnn2O`, the nuclear translocation activity was inactive: -5.3%.
With `NC(=O)Nc1ccc([As](=O)(O)O)cc1`, the nuclear translocation activity was inactive: 0.9%.
Regarding `O=C(O)COc1ccc([As](=O)(O)O)cc1[N+](=O)[O-]`, the nuclear translocation activity is inactive: 0.2%.
Consider `Nc1ccccc1[As](=O)(O)c1ccccc1`, for which the nuclear translocation activity is inactive: 0.4%.
Under `O=P(Nc1nccs1)(c1ccccc1)c1nc2ccccc2s1` (centres undefined) stands inactive: -0.6%.
For the compound `O=P(Nc1nccs1)(Oc1ccccc1)Oc1ccccc1`, the nuclear translocation activity is inactive: 1.2%.
With `O=C(O)c1cccc(Nc2c([N+](=O)[O-])cc([N+](=O)[O-])cc2[N+](=O)[O-])c1`, the nuclear translocation activity was inactive: -0.6%.
For the compound `CS(=O)(=O)c1cc([N+](=O)[O-])c2no[n+]([O-])c2c1`, the nuclear translocation activity is inactive: 0.2%.
To `O=[N+]([O-])c1cc([N+](=O)[O-])c(-c2ccn[nH]2)s1` belongs inactive: 6.2%; to `CCN(CC)C(=S)SC(NC=O)C(Cl)(Cl)Cl` (centres undefined), inactive: -2.3%; to `CC(C)NC(=O)NP(=O)(Oc1ccccc1)Oc1ccccc1`, inactive: -2.4%.
As for `COc1ccccc1OP(C)(=O)Nc1cc(Cl)ccc1C` (centres undefined), the nuclear translocation activity was inactive: 0.9%.
Turning to `Cc1cc(C)cc(OP(C)(N)=O)c1` (centres undefined), the nuclear translocation activity is inactive: 0.2%.
For `ClCCSc1nnc(-c2cccnc2)o1`, the nuclear translocation activity is inactive: 6.8%.
To `CCOC(=O)c1ccc(NP(C)(=O)Oc2ccccc2)cc1` (centres undefined) belongs inactive: -4.1%.
Turning to `CC(C)c1ccc(OP(=O)(Nc2ccccn2)Oc2ccccc2F)cc1` (centres undefined), the nuclear translocation activity is inactive: 0.5%.
For `Cc1ccc(NP(C)(=O)Oc2ccccc2)c(C)c1` (centres undefined), the nuclear translocation activity was inactive: -8.5%.
In the case of `Cc1cccc(C)c1OP(C)(N)=O` (centres undefined), the nuclear translocation activity was inactive: 0.2%.
`CC(C)(C)c1ccc(OP(C)(=O)Nc2ccc(SC(F)(F)F)cc2)cc1` (centres undefined): the nuclear translocation activity was inactive: -0.3%.
Under `Cc1ccc(OP(=O)(Nc2ccc([N+](=O)[O-])cn2)Oc2ccc(C)cc2)cc1` stands inactive: -1.8%; under `Cc1ccc2nc3c(c(C)c2c1)CC(C(Cl)Cl)S3` (centres undefined), inactive: -1.9%; under `O=[N+]([O-])c1ccc2c(c1)C=Nc1ccccc1O2`, inactive: 0%.
As for `C[As](=O)(O)c1cccc(C(=O)O)c1`, the nuclear translocation activity is inactive: -1.1%.
Under `O=[As](O)(c1ccc(O)cc1)c1ccccc1O` stands inactive: -0.4%; under `COc1ccc(N/C(=N/P(=O)(N2CCOCC2)N2CCOCC2)N2CCOCC2)cc1`, inactive: -0.9%.
With `COc1cc(I)ccc1[As](=O)(O)O`, the nuclear translocation activity was inactive: 0.4%.
On to `COc1ccc2nc(NP(=O)(c3ccccc3)c3ccccc3)sc2c1`, for which the nuclear translocation activity was inactive: -1.2%.
Consider `Cc1c2c(nc3ccccc13)SC(C(Cl)Cl)C2` (centres undefined), for which the nuclear translocation activity is inactive: 1.1%.
`CCN(CC)CCCOC(=O)C(O)(c1ccccc1)c1ccccc1`: the nuclear translocation activity is inactive: -0.9%.
Regarding `Cc1cc(=O)[nH]c(N[N+](=O)[O-])n1`, the nuclear translocation activity is inactive: -2.8%.
To `O=C(OC1CN2CCC1CC2)C12CC3CC(CC(C3)C1)C2` (centres undefined) belongs inactive: 0.9%; to `CCC(C)N(CC(C)C)C(=S)SC(NC(C)=O)C(Cl)(Cl)Cl` (centres undefined), inactive: -5.6%; to `CP(=O)(Nc1ccccn1)Oc1ccc(Cl)cc1` (centres undefined), inactive: -0.2%.
For the compound `CCOP(C)(=S)SCC(=O)NC(C)C(=O)O` (centres undefined), the nuclear translocation activity is inactive: -4.5%.
In the case of `CCOC(=O)c1ccc(NC(=O)C(C)(CCl)SC)cc1` (centres undefined), the nuclear translocation activity is inactive: -1.5%.
Under `Cc1cc(C)cc(OP(C)(=O)Nc2ccc(SC(F)(F)F)cc2)c1` (centres undefined) stands inactive: -2.9%.
For `CCc1ccc(OP(C)(=O)N2CCN(c3ccc([N+](=O)[O-])cc3)CC2)cc1` (centres undefined), the nuclear translocation activity was inactive: 1.1%.
Take `CP(=O)(NC(=O)Nc1ccccc1)Oc1ccccc1` (centres undefined): the nuclear translocation activity was inactive: -0.3%.
For `O=C(COc1ccccc1)OC1CN2CCC1CC2` (centres undefined), the nuclear translocation activity is inactive: -1.3%.
On to `CP(=O)(Oc1ccccc1)OC(c1ccccc1)C(F)(F)F` (centres undefined), for which the nuclear translocation activity is inactive: -0.9%.
Consider `CP(=O)(Nc1ccc(SC(F)(F)F)cc1)Oc1ccc(Cl)cc1` (centres undefined), for which the nuclear translocation activity was inactive: 0.4%.
Under `Cc1cccc(C)c1OP(C)(=O)Nc1ccc(SC(F)(F)F)cc1` (centres undefined) stands inactive: 0.2%.
On to `COc1ccccc1OP(C)(=O)Nc1ccccc1` (centres undefined), for which the nuclear translocation activity was inactive: 0%.
For `Cc1cc(SC(NC=O)C(Cl)(Cl)Cl)ncn1` (centres undefined), the nuclear translocation activity was inactive: -3.5%.
Regarding `O=P(Nc1ccccn1)(c1cccc2ccccc12)c1cccc2ccccc12`, the nuclear translocation activity is inactive: 0.1%.
To `O=[N+]([O-])c1ccc(Nc2ccc(Oc3ccc([N+](=O)[O-])cc3[N+](=O)[O-])cc2)c([N+](=O)[O-])c1` belongs inactive: 2.7%; to `CCOC(=O)Nc1cccc([As](=O)(O)O)c1`, inactive: -0.9%.
`Cc1cc(SC(NC(=O)c2ccccc2)C(Cl)(Cl)Cl)nc(C(C)C)n1` (centres undefined): the nuclear translocation activity is inactive: 0.8%.
As to `CCOC(=O)Nc1ccc([As](=O)(O)O)c(O)c1`, the nuclear translocation activity is inactive: -1.4%.
